From ChEMBL document CHEMBL4742387, “Condensed tricyclic compounds as protein kinase inhibitors” (2018)
pIC50: −log10 of the molar value.

Biological target: T1, Serine/threonine-protein kinase haspin (Homo sapiens, UniProt Q8TF76)
T1 sequence (Q8TF76 whole entry): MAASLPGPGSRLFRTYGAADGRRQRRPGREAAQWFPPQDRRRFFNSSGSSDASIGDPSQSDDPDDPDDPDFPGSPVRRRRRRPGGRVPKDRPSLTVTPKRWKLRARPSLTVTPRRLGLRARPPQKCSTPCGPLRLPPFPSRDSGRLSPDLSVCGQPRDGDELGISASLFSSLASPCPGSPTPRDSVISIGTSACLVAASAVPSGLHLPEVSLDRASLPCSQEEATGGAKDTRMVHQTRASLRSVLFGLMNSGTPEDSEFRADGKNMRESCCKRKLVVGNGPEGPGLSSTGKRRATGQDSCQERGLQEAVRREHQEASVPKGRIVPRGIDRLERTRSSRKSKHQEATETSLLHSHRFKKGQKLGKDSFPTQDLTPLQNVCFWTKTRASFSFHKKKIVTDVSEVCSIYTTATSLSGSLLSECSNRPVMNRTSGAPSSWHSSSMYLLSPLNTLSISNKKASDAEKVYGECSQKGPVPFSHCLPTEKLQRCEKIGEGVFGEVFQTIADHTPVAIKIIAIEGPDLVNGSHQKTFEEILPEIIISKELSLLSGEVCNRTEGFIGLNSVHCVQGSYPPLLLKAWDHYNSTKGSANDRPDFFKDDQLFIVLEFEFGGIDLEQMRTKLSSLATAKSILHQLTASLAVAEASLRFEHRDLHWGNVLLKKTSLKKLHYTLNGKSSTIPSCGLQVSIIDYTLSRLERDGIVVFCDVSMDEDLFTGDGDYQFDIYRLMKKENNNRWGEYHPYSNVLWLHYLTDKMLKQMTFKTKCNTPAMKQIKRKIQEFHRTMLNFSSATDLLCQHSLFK
Assay: Inhibition of GST-tagged recombinant human haspin kinase domain incubated for 60 mins by ADP-Glo luminescent kinase assay

Row | pIC50 | Compound
1 | 7.78 | CCn1c(C(N)=O)cc2c1-c1ccncc1OC21CCCCC1
2 | 5.29 | NC(=O)c1cc2c([nH]1)-c1ccncc1OC2C1CCCCC1 (configuration not stated)
